The assay has as its target T1, Amine oxidase [copper-containing] 3 (Homo sapiens, UniProt Q16853).
T1 sequence (Q16853 whole entry): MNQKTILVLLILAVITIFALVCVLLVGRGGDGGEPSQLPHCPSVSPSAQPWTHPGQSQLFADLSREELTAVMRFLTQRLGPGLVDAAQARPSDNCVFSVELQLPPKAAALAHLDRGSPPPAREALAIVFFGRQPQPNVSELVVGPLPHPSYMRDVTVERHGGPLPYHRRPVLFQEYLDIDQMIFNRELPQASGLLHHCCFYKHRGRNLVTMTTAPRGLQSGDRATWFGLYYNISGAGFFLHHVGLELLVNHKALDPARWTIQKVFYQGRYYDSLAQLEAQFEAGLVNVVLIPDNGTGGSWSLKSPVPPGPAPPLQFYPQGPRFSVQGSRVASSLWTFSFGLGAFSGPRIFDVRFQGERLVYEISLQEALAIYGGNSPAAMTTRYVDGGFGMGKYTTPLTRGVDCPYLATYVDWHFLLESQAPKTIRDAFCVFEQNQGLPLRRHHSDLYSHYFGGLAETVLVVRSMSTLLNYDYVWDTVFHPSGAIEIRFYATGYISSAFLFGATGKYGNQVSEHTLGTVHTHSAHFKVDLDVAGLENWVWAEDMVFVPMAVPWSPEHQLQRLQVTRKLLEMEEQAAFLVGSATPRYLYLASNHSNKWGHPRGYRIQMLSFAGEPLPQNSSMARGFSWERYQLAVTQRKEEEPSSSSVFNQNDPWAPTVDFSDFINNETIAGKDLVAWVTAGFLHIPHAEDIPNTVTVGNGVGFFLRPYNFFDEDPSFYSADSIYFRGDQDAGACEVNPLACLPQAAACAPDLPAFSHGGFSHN
The experiment in a line: Recombinant SSAO/VAP-1 Inhibtion Assay: Briefly, HMEC cell expressing human SSAO/VAP-1 were grown in several 10 cm petri dishes, once the cells reached 100% confluency, cells were harvested and homogenates were prepared. Cells were washed twice with 5 mL of chilled HES buffer (20 mM HEPES, 1 mM EDTA, 250 mM sucrose, pH 7.4). HES buffer containing 1× protease inhibitor (Sigma Aldrich) and added …. The format is tissue-based, Tail.

As a reminder, the IC50 is the midpoint of a concentration-inhibition curve. For `CN(C)S(=O)(=O)c1ccc(OC/C(=C/F)CN)cc1`, the IC50 is less than 100 µM.

Values taken from ChEMBL document CHEMBL3886634, “Substituted 3-haloallylamine inhibitors of ASSAO and uses thereof” (2016).
